Measurements published in patent US10287530B2, “Surfactants based on monounsaturated fatty alcohol derivatives” (priority 2013, dated 2019).
Read-outs that look alike come from different tables or passages of the source.

Tests used:
[1] = format: physicochemical; conditions: 342 ppm water
Protocol: Surfactant candidates for water soluble herbicide applications are examined as a replacement for the anionic, nonionic, or anionic/nonionic blend portion and compared to a known industry adjuvant standard for use in paraquat, a water soluble herbicide concentrate formulation. A standard dilution test is conducted whereby the concentrates are diluted in water to determine if solubility is complete.
A known industry paraquat adjuvant (2.8 g) is added and vigorously mixed for 30 s. Deionized water (8.07 g) is added, and mixing resumes for 30 s. […] The cylinder is stoppered and inverted ten times. Solubility is recorded as complete or incomplete. Cylinders are allowed to stand and the amount (in mL) and type of separation are recorded after 30 min., 1 h, 2 h, and 24 h. Results of the solubility testing appear in Table 4 below.
An eight to ten mole alkyl phenol ethoxylate surfactant (0.7 g) is added and vigorously mixed for 30 s. Test sample (0.7 g) is added and mixing resumes for 30 s. Deionized water (4.03 g) is added, and mixing resumes for 30 s.
Test sample (0.7 g) is added and vigorously mixed for 30 s. Sodium linear alkylbenzene sulfonate (“NaLAS,” 0.7 g) is added and mixing resumes for 30 s. Deionized water (4.03 g) is added, and mixing resumes for 30 s.
Test sample (1.4 g) is added and vigorously mixed for 30 s. Deionized water (4.03 g) is added, and mixing resumes for 30 s.

[2] = Appearance and solubility of surfactants and of 1:1 molar blends with cationic surfactant; format: physicochemical
Protocol: The surfactant blends tested are prepared at a 1:1 molar ratio without any pH adjustment. Dilutions are made using deionized water to the desired actives level. Actives amounts are wt. % unless indicated otherwise. Appearances are reported at ambient temperature for samples prepared within the last 24 h.

[3] = Adjuvant (anionic/nonionic) test sample
[4] = Nonionic test sample: replaces nonionic portion (with NaLAS)

| Substance | Emulsion stability, mL separation, 1 h [1, 3] [mL] | Emulsion stability, mL separation, 24 h [1, 3] [mL] | sol (solubility) [1, 3] | Emulsion stability, mL separation, 24 h ([1]; Anionic test sample) [mL] | sol (solubility) [1, 4] | Emulsion stability, mL separation, 1 h ([1]; Nonionic test sample) [mL] | Solubility [2] | Appearance, 0.1% ([2]; 1:1 molar blend of the anionic with Ammonyx Cetac 30, 0.1% actives, ambient temperature) | Appearance, 1.0% ([2]; 1:1 molar blend of the anionic with Ammonyx Cetac 30, 1.0% actives, ambient temperature) | Emulsion stability, mL separation, 1 h ([1]; Anionic test sample) [mL] |
| --- | --- | --- | --- | --- | --- | --- | --- | --- | --- | --- |
| 1-Undecanol, 1EO Ether Sulfate, Ammonium Salt [Sat. 1EO NH4 sulfate] | 0 | 0 | S | 0 | S | 0 | fair-poor | hazy liquid | separated | – |
| Undecylenic Alcohol Sulfate, Sodium Salt [Unsat. C11 alcohol Na sulfate] | – | – | – | – | I | – | – | – | – | – |
| Undecylenic Alcohol, 1EO Ether Sulfate, Ammonium Salt [Unsat. 1EO NH4 sulfate] | – | – | S | – | – | – | good | – | – | 0 |
